# Source: PubChem BioAssay AID463104 (Sanford-Burnham Center for Chemical Genomics, 2010)
# This is a selection; strong and weak results do not stand in their true shares. Active and inactive are the calls of the source.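 Rule for the calls: active = versus positive control, 20 µM dose yields 30% or more activation; inactive = the rest.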
# Assay: activators of adaptive XBP1 UPR arm, primary screen, cell-based, CHO-XBP1 luciferase reporter, luminescence, uHTS (AID 463104);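 note: 100% = tunicamycin at 10 µg/mL and 0% = DMSO only wells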
# Details: IRE1-XBP1 UPR activation, at 20 µM, hits give high values, percent of tunicamycin response, DMSO as zero
# Method in brief: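 Material: CHO cell line with stable XBP1 luciferase reporter; schedule: 16-18 h cell attachment at 37 °C, then 6 h compound exposure; signal: glow luminescence from Steady-Glo reagent; medium: serum-containing F12 medium, 10% FBS; benchmarks: tunicamycin 10 µg/mL and vehicle-only wells; read-out: percent activation relative to tunicamycin reference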
row,Structure (SMILES),activation
1,COc1cc(OC)c(C(=O)NCC2(N(C)C)CCCCC2)cc1OC,inactive: -0.06%
2,O=C(NCC1(N2CCOCC2)CCCCC1)c1cc(F)c(F)cc1Cl,inactive: -0.74%
3,COc1ccc(CN(CCCl)CCCl)cc1Cl,inactive: 2.98%
4,CN(C)c1cccc(C(=O)NCC2(N3CCCCC3)CCCCC2)c1,inactive: 1.17%
5,CC(C)c1ccc(NC2CCN(C(=O)OC(C)(C)C)CC2)cc1,inactive: -2.93%
6,O=C(NCC1(N2CCCCC2)CCCCC1)c1cncc(Br)c1,inactive: -1.97%
7,CN1CCC(Nc2cccc(F)c2)CC1,inactive: -2.46%
8,CSc1ccc(C(=O)NCC2(N3CCOCC3)CCCCC2)cc1,inactive: -2.24%
9,O=C(NCC1(N2CCCCC2)CCCCC1)c1cccc([N+](=O)[O-])c1,inactive: -1.69%
10,CCN1CCC(Nc2ccc(Cl)cc2)CC1,inactive: -4.88%
11,N#CC1(Nc2ccccc2)CCN(CCc2ccccc2)CC1,inactive: -8.56%
12,O=C(NCC1(N2CCCCC2)CCCCC1)c1ccc(OC(F)F)cc1,inactive: -3.54%
13,CN1CCN(CCOC(=O)C(O)(c2ccccc2)c2ccccc2)CC1,inactive: -2.61%
14,CC(C)c1ccc(C(=O)NCC2(N3CCOCC3)CCCCC2)cc1,inactive: -0.51%
15,COc1ccc(NC2CCN(C(=O)OC(C)(C)C)CC2)cc1,inactive: -1.78%
16,COc1cc(C(=O)NCC2(N3CCCCC3)CCCCC2)ccc1OC(F)F,inactive: -3.52%
17,O=C(NCC1(N2CCOCC2)CCCCC1)c1cc(=O)[nH]c2ccccc12,inactive: -1.82%
18,O=C(NCC1(N2CCCCC2)CCCCC1)c1cccc(C(F)(F)F)c1,inactive: -3.08%
19,O=C(NCC1(N2CCCCC2)CCCCC1)c1ccc(F)cc1,inactive: 4.01%
20,CCCCOc1ccc(C(=O)NCC2(N3CCOCC3)CCCCC2)cc1,inactive: 0.29%
21,COc1ccc(NC2CCN(CCc3ccccc3)CC2)c(OC)c1,inactive: -2.41%
22,CCOC(=O)N1CCC(Nc2ccc(F)cc2)CC1,inactive: -2.45%
23,CCOc1ccc(C)cc1CN(CCCl)CCCl,inactive: -2.34%

row,Structure (SMILES),activation
1,CCOC(=O)N1CCC(Nc2cccc(C)c2)CC1,inactive: -1.04%
2,Cc1ccc(OCC(C)C)c(CN(CCCl)CCCl)c1,inactive: -2.49%
3,CSc1ccccc1C(=O)NCC1(N2CCCCC2)CCCCC1,inactive: -2.62%
4,O=C(NCC1(N2CCCCC2)CCCCC1)c1ccc(=O)[nH]c1,inactive: -3.74%
5,O=C(NCC1(N2CCCCC2)CCCCC1)c1cccs1,inactive: -0.07%
6,COc1ccc(C(=O)NCC2(N3CCCCC3)CCCCC2)cc1,inactive: -0.38%
7,CC(C)(C)OC(=O)N1CCC(N(C(=O)c2ccccc2)c2ccc(F)cc2)CC1,inactive: -5.7%
8,COc1ccc(C(=O)NCC2(N3CCCCC3)CCCCC2)c(OC)c1OC,inactive: -2.35%
9,CCOC(=O)N1CCC(Nc2ccc(OC)cc2)CC1,inactive: 0.87%
10,O=C(OC1CN2CCC1CC2)C1c2ccccc2Oc2ccccc21 (configuration not stated),inactive: 1.77%
11,N#CC1(Nc2ccccc2)CCN(Cc2ccccc2)CC1,inactive: -3.25%
12,O=C(NCC1(N2CCCCC2)CCCCC1)c1ccc(Cl)s1,inactive: 2.5%
13,COc1ccc(Cl)cc1C(=O)NCC1(N2CCOCC2)CCCCC1,inactive: -1.31%
14,O=C(NCC1(N2CCOCC2)CCCCC1)c1cc2ccccc2o1,inactive: -4.15%
15,O=C(NCC1(N2CCCCC2)CCCCC1)c1ccc(Cl)nc1,inactive: -2.29%
16,Cc1cc(C)cc(N(C(=O)c2ccccc2)C2CCN(C(=O)OC(C)(C)C)CC2)c1,inactive: -8.6%
17,CCCOc1ccc(C(=O)NCC2(N(C)C)CCCCC2)cc1,inactive: 2.72%
18,CC(C)(C)OC(=O)N1CCC(Nc2ccccc2)CC1,inactive: 2.69%
19,O=C(O)C1(Nc2ccccc2)CCN(Cc2ccccc2)CC1,inactive: 1.23%
20,CCOc1ncccc1C(=O)NCC1(N2CCOCC2)CCCCC1,inactive: 0.17%
21,CN1CCC(Nc2ccc(F)c(Cl)c2)CC1,inactive: -1.02%
22,CCCOc1ccc(C)cc1CN(CCCl)CCCl,inactive: -1.64%
23,CN1CCC(Nc2ccc(Cl)cc2)CC1,inactive: 0.56%

row,Structure (SMILES),activation
1,CCC(CO)(C(=O)OC1CN2CCC1CC2)c1ccccc1 (configuration not stated),inactive: 0.09%
2,COc1cc(OC)cc(C(=O)NCC2(N3CCOCC3)CCCCC2)c1,inactive: -1.83%
3,COc1cccc(C(=O)N(c2cc(C)cc(C)c2)C2CCN(C(=O)OC(C)(C)C)CC2)c1,inactive: -7.14%
4,Cc1ccc(C(=O)NCC2(N3CCCCC3)CCCCC2)o1,inactive: 2.02%
5,Fc1ccccc1NC1CCN(Cc2ccccc2)CC1,inactive: 0.26%
6,COc1cc(OC)cc(C(=O)NCC2(N3CCCCC3)CCCCC2)c1,inactive: -0.52%
7,O=C(NCC1(N2CCCCC2)CCCCC1)c1ccco1,inactive: 2.84%
8,CN(C)c1ccc(C(=O)NCC2(N3CCCCC3)CCCCC2)cc1,inactive: 0.44%
9,CCN1CCC(Nc2cccc(F)c2)CC1,inactive: -1.96%
10,CC(C)(C)OC(=O)N1CCC(N(C(=O)c2ccccc2)c2ccc(Cl)cc2)CC1,inactive: -3.89%
11,N#Cc1ccc(C(=O)NCC2(N3CCCCC3)CCCCC2)cc1,inactive: -1.69%
12,c1ccc(CN2CCC(Nc3ccccc3)CC2)cc1,inactive: -1.17%
13,CCCN1CCC(Nc2cc(OC)cc(OC)c2)CC1,inactive: -2.97%
14,CN(C)C1(CNC(=O)c2cccc(C#N)c2)CCCCC1,inactive: -4.2%
15,COc1ccc(C(=O)NCC2(N3CCOCC3)CCCCC2)cc1OC,inactive: -3.34%
16,O=C(NCC1(N2CCOCC2)CCCCC1)c1cc(Br)ccc1Cl,inactive: 0.83%
17,COc1cc(C(=O)NCC2(N3CCOCC3)CCCCC2)cc(OC)c1C,inactive: -1.12%
18,O=C(OC1CN2CCC1CC2)C1c2ccccc2C=Cc2ccccc21 (configuration not stated),inactive: 0.44%
19,CCc1cc(C(=O)NCC2(N3CCCCC3)CCCCC2)sc1C,inactive: 5.14%
20,N/C(=N\O)c1c(N)no[n+]1[O-],inactive: -0.99%
21,CCOC(=O)N1CCC(Nc2ccc(C)cc2)CC1,inactive: -2.31%
